# Measurements as given in ChEMBL document CHEMBL5034027, “Synthesis and evaluation of stereoisomers of methylated catechin and epigallocatechin derivatives on modulating P-glycoprotein-mediated multidrug resistance in cancers” (Eur J Med Chem, 2021).
# System: LCC6MDR
# Assay: Reversal of Pgp-mediated paclitaxel resistance in human LCC6MDR cells assessed as relative fold by measuring paclitaxel IC50 at 10 uM after 5 days by Cell Titer-Glo luminescence assay relative to control
# Assay type: cell-based
# Settings: time 5.0 day
smiles,measurement,value
O=C(O[C@@H]1Cc2c(O)cc(O)cc2O[C@@H]1c1cc(O)c(O)c(O)c1)c1cc(O)c(O)c(O)c1 [EPIGALOCATECHIN GALLATE],fold change (FC),1.2
